Measurements: patent US20060094649A1, “Hla-a1,-a2,-a3,-a24,-b7, and-b44 tumor associated antigen peptides and compositions” (priority 2002, published 2006)

The compounds below were run on HLA-B44 supertype molecules (assay: HLA-B44 supertype cross-binding). Conditions: number of the six B44 supertype alleles bound.
Set-up: species or system human
Work on CC(C)C[C@H](NC(=O)[C@@H]1CCCN1C(=O)[C@H](C)NC(=O)[C@@H](NC(=O)[C@H](Cc1ccc(O)cc1)NC(=O)CNC(=O)[C@H](CC(=O)O)NC(=O)[C@@H](NC(=O)[C@H](CCC(=O)O)NC(=O)[C@@H](N)CO)[C@@H](C)O)C(C)C)C(=O)N[C@H](C(=O)O)[C@@H](C)O [compound 469] yielded a Degeneracy of 5. With CC(C)C[C@H](NC(=O)CNC(=O)[C@H](CC(C)C)NC(=O)[C@H](Cc1ccc(O)cc1)NC(=O)[C@H](CCC(=O)O)NC(=O)[C@@H]1CCCN1C(=O)[C@H](CC(N)=O)NC(=O)[C@H](CCC(=O)O)NC(=O)[C@H](C)N)C(=O)N[C@@H](CC(=O)O)C(=O)N[C@H](C(=O)O)C(C)C [compound 470] the Degeneracy was 5. Work on CSCC[C@H](N)C(=O)N[C@@H](CCC(=O)O)C(=O)N[C@@H](CC(C)C)C(=O)N[C@@H](C)C(=O)N[C@@H](C)C(=O)N[C@@H](CC(C)C)C(=O)N[C@@H](CS)C(=O)N[C@@H](CCCNC(=N)N)C(=O)N[C@@H](Cc1c[nH]c2ccccc12)C(=O)O [compound 471] yielded a Degeneracy of 4. Work on CSCC[C@H](N)C(=O)N[C@@H](CCC(=O)O)C(=O)N[C@@H](CC(C)C)C(=O)N[C@@H](C)C(=O)N[C@@H](C)C(=O)N[C@@H](CC(C)C)C(=O)N[C@@H](CS)C(=O)N[C@@H](CCCNC(=N)N)C(=O)N[C@@H](Cc1c[nH]c2ccccc12)C(=O)NCC(=O)O [compound 472] yielded a Degeneracy of 4. CC[C@H](C)[C@H](NC(=O)[C@H](CC(C)C)NC(=O)[C@@H](NC(=O)[C@H](Cc1ccc(O)cc1)NC(=O)CNC(=O)[C@H](CCC(N)=O)NC(=O)[C@@H](NC(=O)[C@H](CCC(=O)O)NC(=O)[C@@H](N)CCC(N)=O)C(C)C)C(C)C)C(=O)N[C@@H](C)C(=O)O [compound 473] gave a Degeneracy of 4. CC(C)C[C@H](NC(=O)[C@@H](NC(=O)[C@H](C)NC(=O)[C@H](CC(C)C)NC(=O)[C@H](C)NC(=O)[C@H](Cc1ccc(O)cc1)NC(=O)[C@H](CC(N)=O)NC(=O)[C@H](CC(=O)O)NC(=O)[C@H](CCC(=O)O)NC(=O)[C@@H](N)Cc1ccccc1)C(C)C)C(=O)O [compound 474] showed a Degeneracy of 4. Work on CC(C)C[C@H](NC(=O)[C@H](CO)NC(=O)[C@H](CCCNC(=N)N)NC(=O)[C@H](CC(C)C)NC(=O)[C@H](CCC(N)=O)NC(=O)[C@H](CC(C)C)NC(=O)[C@H](CCC(=O)O)NC(=O)[C@@H](N)CCCNC(=N)N)C(=O)O [compound 475] yielded a Degeneracy of 4. Work on CC[C@H](C)[C@H](NC(=O)[C@H](CCC(=O)O)NC(=O)[C@@H](N)[C@@H](C)O)C(=O)N[C@@H](CC(C)C)C(=O)N[C@@H](CCCCN)C(=O)NCC(=O)NCC(=O)N[C@H](C(=O)N[C@@H](CC(C)C)C(=O)O)C(C)C [compound 476] yielded a Degeneracy of 4. With CC[C@H](C)[C@H](NC(=O)[C@H](CC(C)C)NC(=O)[C@@H](NC(=O)CNC(=O)CNC(=O)[C@H](CCCCN)NC(=O)[C@H](CC(C)C)NC(=O)[C@@H](NC(=O)[C@H](CCC(=O)O)NC(=O)[C@@H](N)[C@@H](C)O)[C@@H](C)CC)C(C)C)C(=O)O [compound 477] the Degeneracy was 4. CC(C)C[C@H](NC(=O)[C@H](CO)NC(=O)[C@H](CCC(N)=O)NC(=O)[C@H](CS)NC(=O)[C@H](CC(=O)O)NC(=O)[C@H](CCC(=O)O)NC(=O)[C@H](CO)NC(=O)[C@H](CO)NC(=O)[C@H](CCC(=O)O)NC(=O)CN)C(=O)O [compound 478] was tested, and the Degeneracy was 4. For CC(C)C[C@H](NC(=O)[C@H](CO)NC(=O)[C@H](CCC(N)=O)NC(=O)[C@H](CS)NC(=O)[C@H](CC(=O)O)NC(=O)[C@H](CCC(=O)O)NC(=O)[C@@H](N)CO)C(=O)N[C@H](C(=O)N[C@@H](CCCNC(=N)N)C(=O)N[C@H](C(=O)N[C@H](C(=O)O)C(C)C)[C@@H](C)O)[C@@H](C)O [compound 479], the Degeneracy was 4. CC(C)[C@H](NC(=O)[C@H](CS)NC(=O)[C@H](CO)NC(=O)[C@H](C)NC(=O)CNC(=O)[C@H](Cc1ccccc1)NC(=O)[C@@H](NC(=O)[C@H](Cc1ccc(O)cc1)NC(=O)[C@H](CCCNC(=N)N)NC(=O)CNC(=O)[C@H](CCC(=O)O)NC(=O)[C@@H]1CCCN1)[C@@H](C)O)C(=O)O [compound 480] showed a Degeneracy of 4.
